Data taken from ChEMBL document CHEMBL4334540, “Epimers Switch Galectin-9 Domain Selectivity: 3N-Aryl Galactosides Bind the C-Terminal and Gulosides Bind the N-Terminal” (ACS Med Chem Lett, 2020).
Active and inactive are the calls of the source.

Sequences of proteins named here, by UniProt entry; tags and fusion partners are left off.
UniProt P17931, whole entry: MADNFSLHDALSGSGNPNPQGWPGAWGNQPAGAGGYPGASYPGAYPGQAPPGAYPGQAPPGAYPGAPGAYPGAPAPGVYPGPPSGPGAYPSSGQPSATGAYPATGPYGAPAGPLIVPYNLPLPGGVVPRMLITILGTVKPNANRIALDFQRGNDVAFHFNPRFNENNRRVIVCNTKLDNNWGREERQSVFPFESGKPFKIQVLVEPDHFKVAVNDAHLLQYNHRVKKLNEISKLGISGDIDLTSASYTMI
UniProt P47929, whole entry: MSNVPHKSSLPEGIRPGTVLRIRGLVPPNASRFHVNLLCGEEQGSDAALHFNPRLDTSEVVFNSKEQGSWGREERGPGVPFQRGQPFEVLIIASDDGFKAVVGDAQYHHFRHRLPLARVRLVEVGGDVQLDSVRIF
UniProt P09382, whole entry: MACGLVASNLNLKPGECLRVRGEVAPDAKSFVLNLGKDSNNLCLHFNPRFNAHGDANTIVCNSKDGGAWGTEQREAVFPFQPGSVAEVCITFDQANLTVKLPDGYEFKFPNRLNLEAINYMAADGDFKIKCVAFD

Assays:
[1] = target: T1, Galectin-8 (Homo sapiens) (UniProt O00214); test: Binding affinity at recombinant human C-terminal Galectin 8 expressed in Escherichia coli BL21 at 2 mM incubated for 5 mins by fluorescence anisotropy assay
T1 sequence (whole entry): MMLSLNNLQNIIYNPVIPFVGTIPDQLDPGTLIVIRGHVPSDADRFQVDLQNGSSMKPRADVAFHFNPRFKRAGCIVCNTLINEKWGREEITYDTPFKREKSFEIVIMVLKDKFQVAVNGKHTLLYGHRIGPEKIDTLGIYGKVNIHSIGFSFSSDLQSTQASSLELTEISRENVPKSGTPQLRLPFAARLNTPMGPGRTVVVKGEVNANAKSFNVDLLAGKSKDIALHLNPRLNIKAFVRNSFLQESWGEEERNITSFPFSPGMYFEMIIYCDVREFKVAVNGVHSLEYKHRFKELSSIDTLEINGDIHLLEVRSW

Galectin-3 = Galectin-3 (Homo sapiens, UniProt P17931); test: Binding affinity at recombinant human Galectin 3 expressed in Escherichia coli BL21 at 2 mM incubated for 5 mins by fluorescence anisotropy assay
Galectin-7 = Galectin-7 (Homo sapiens, UniProt P47929); test: Binding affinity at recombinant human Galectin 7 expressed in Escherichia coli BL21 at 2 mM incubated for 5 mins by fluorescence anisotropy assay
[2] = target: T1, Galectin-8 (Homo sapiens); test: Binding affinity at recombinant human N-terminal Galectin 8 expressed in Escherichia coli BL21 at 2 mM incubated for 5 mins by fluorescence anisotropy assay
Galectin-9 [3] = target: T2, Galectin-9 (Homo sapiens, UniProt O00182); test: Binding affinity at recombinant human N-terminal Galectin 9 expressed in Escherichia coli BL21 at 2 mM incubated for 5 mins by fluorescence anisotropy assay
Galectin-1 = Galectin-1 (Homo sapiens, UniProt P09382); test: Binding affinity at recombinant human Galectin 1 expressed in Escherichia coli BL21 at 2 mM incubated for 5 mins by fluorescence anisotropy assay
Galectin-9 [4] = target: T2, Galectin-9; test: Binding affinity at recombinant human C-terminal Galectin 9 expressed in Escherichia coli BL21 at 2 mM incubated for 5 mins by fluorescence anisotropy assay

Measured: Activity

CO[C@@H]1O[C@H](CO)[C@H](O)[C@H](Nc2ccc(C)c(C)c2)[C@H]1O
inactive: [1] | Galectin-3 | Galectin-7 | [2]

COc1cccc(N[C@H]2[C@@H](O)[C@@H](CO)O[C@@H](OC)[C@@H]2O)c1
inactive: [1] | Galectin-3 | Galectin-7 | [2] | Galectin-9 [3]

CO[C@@H]1O[C@H](CO)[C@H](O)[C@@H](Nc2ccccc2)[C@H]1O
inactive: [1] | Galectin-1 | Galectin-3 | Galectin-7 | [2] | Galectin-9 [4]

CO[C@@H]1O[C@H](CO)[C@H](O)[C@H](Nc2ccc(C)cc2)[C@H]1O
inactive: [1] | Galectin-3 | Galectin-7 | [2] | Galectin-9 [3]

COc1ccc(N[C@@H]2[C@@H](O)[C@@H](CO)O[C@@H](OC)[C@@H]2O)cc1
inactive: [1] | Galectin-1 | Galectin-3 | Galectin-7 | [2] | Galectin-9 [4]

CO[C@@H]1O[C@H](CO)[C@H](O)[C@@H](Nc2ccc(C)cc2)[C@H]1O
inactive: [1] | Galectin-1 | Galectin-3 | Galectin-7 | [2] | Galectin-9 [4]

CO[C@@H]1O[C@H](CO)[C@H](O)[C@H](Nc2ccc(F)c(F)c2)[C@H]1O
inactive: [1] | Galectin-3 | Galectin-7 | [2] | Galectin-9 [3]

CO[C@@H]1O[C@H](CO)[C@H](O)[C@H](Nc2cccc(Cl)c2)[C@H]1O
inactive: [1] | Galectin-3 | [2]

COc1ccc(N[C@@H]2[C@@H](O)[C@@H](Sc3ccc(Cl)c(Cl)c3)O[C@H](CO)[C@@H]2O)cc1
inactive: [2]

COc1ccc(N[C@H]2[C@@H](O)[C@@H](Sc3ccc(Cl)c(Cl)c3)O[C@H](CO)[C@@H]2O)cc1
inactive: Galectin-1 | Galectin-3 | Galectin-9 [4]

COc1ccc(N[C@H]2[C@@H](O)[C@@H](CO)O[C@@H](OC)[C@@H]2O)cc1
inactive: [1] | Galectin-3 | [2]

CO[C@@H]1O[C@H](CO)[C@H](O)[C@@H](Nc2ccc(C)c(C)c2)[C@H]1O
inactive: [1] | Galectin-1 | Galectin-3 | Galectin-7 | [2] | Galectin-9 [4]

COc1cccc(N[C@@H]2[C@@H](O)[C@@H](CO)O[C@@H](OC)[C@@H]2O)c1
inactive: [1] | Galectin-1 | Galectin-3 | Galectin-7 | [2] | Galectin-9 [4]

CO[C@@H]1O[C@H](CO)[C@H](O)[C@@H](Nc2ccc(F)c(F)c2)[C@H]1O
inactive: [1] | Galectin-3 | [2] | Galectin-9 [4]

CO[C@@H]1O[C@H](CO)[C@H](O)[C@@H](Nc2cccc(C)c2)[C@H]1O
inactive: [1] | Galectin-1 | Galectin-3 | Galectin-7 | [2] | Galectin-9 [4]

CO[C@@H]1O[C@H](CO)[C@H](O)[C@@H](Nc2cccc(Cl)c2)[C@H]1O
inactive: [1] | Galectin-1 | Galectin-3 | Galectin-7 | [2] | Galectin-9 [4]

CO[C@@H]1O[C@H](CO)[C@H](O)[C@H](Nc2cccc(C)c2)[C@H]1O
inactive: [1] | Galectin-3 | Galectin-7 | [2]

COc1cccc(N[C@H]2[C@@H](O)[C@@H](Sc3ccc(Cl)c(Cl)c3)O[C@H](CO)[C@@H]2O)c1
inactive: [1] | Galectin-1 | Galectin-3 | Galectin-7 | [2]

CO[C@@H]1O[C@H](CO)[C@H](O)[C@H](Nc2ccccc2)[C@H]1O
inactive: [1] | Galectin-3 | Galectin-7 | [2] | Galectin-9 [3]
